## Binding of CDR-mutated scFvs to a peptide of the spike HR2 region

The target is the same throughout: PDVDLGDISGINAS, from the HR2 region of SARS-CoV-2 spike.

Each scFv is VH, a (GGGGS)3 linker, VL, as in the parent Ab-14, and differs from it in the CDRs of the light chain only.
VH: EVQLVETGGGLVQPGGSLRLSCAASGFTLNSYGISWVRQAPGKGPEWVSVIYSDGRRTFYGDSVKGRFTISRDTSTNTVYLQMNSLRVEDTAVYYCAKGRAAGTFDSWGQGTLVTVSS
VL: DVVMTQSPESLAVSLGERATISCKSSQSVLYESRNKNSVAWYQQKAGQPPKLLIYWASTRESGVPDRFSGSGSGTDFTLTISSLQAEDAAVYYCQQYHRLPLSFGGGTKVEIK

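The parent was found by panning a naive human phage display library on the peptide. The variants were designed computationally from a first round of random CDR variants and then made and measured. Group labels follow the data file (Ctrl: baseline library sampled from a position-specific scoring matrix, with some repeated check sequences; En: ensemble of fine-tuned language models; GP: Gaussian process model; HC: hill climbing; Gen: genetic algorithm; Gibbs: Gibbs sampling; a sequence that several methods proposed may carry one label only). The assay is AlphaSeq: two haploid yeast populations carry antibody and antigen on their surface. After mating in shaken culture at 30 °C for 16 h, diploids were selected and their barcode pairs sequenced. A regression on co-assayed BCL2-family reference pairs converts the normalised counts of each replicate to an apparent Kd. There are six technical replicates.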

Variants are written as CDR1, CDR2 and CDR3 of the light chain (limits as in the source). Parent: KSSQSVLYESRNKNSVA, WASTRES, QQYHRLPLS.
Numbers give log10(Kd / nM), so 0 is 1 nM and 3 is 1 µM. Smaller is tighter.
Replicates are averaged; those with no signal do not enter the mean.
An entry "no signal" has no value in the source: the pair was not observed among the diploids in any replicate. This suggests poor binding but is not conclusive.
The parent sequence was in this pool as ten entries: three were never detected, three once, and four in most replicates, with averages from 0.34 to 2.37.

{"CDR-L1": "KLSQSYLYESTNSNSVA", "CDR-L2": "DASTRES", "CDR-L3": "QQYHRLPLS", "group": "GP_Gibbs", "mean, log10 nM": "0.17", "seen in": "6 of 6"}
{"CDR-L1": "MMSQVTGMGMRHRNNVA", "CDR-L2": "QTSTREP", "CDR-L3": "QQYDRLPLV", "group": "En_Gen", "mean, log10 nM": "1.11", "seen in": "6 of 6"}
{"CDR-L1": "HISYMDGHDGKNIHNVA", "CDR-L2": "DTGVTSR", "CDR-L3": "QQYSRLPLI", "group": "En_Gibbs", "mean, log10 nM": "0.26", "seen in": "6 of 6"}
{"CDR-L1": "KISQDYEYESRNKNSVA", "CDR-L2": "QASTRMV", "CDR-L3": "QQYHRLPLS", "group": "GP_Gibbs", "mean, log10 nM": "-0.43", "seen in": "6 of 6"}
{"CDR-L1": "KLSQVTEYESHQKNNVA", "CDR-L2": "DLTTRGS", "CDR-L3": "QDYHRLPLS", "group": "En_HC", "mean, log10 nM": "-0.11", "seen in": "6 of 6"}
{"CDR-L1": "KLSQQGHYGSRNANNVA", "CDR-L2": "NASKREQ", "CDR-L3": "QQYHRLPLS", "group": "GP_Gibbs", "mean, log10 nM": "0.30", "seen in": "6 of 6"}
{"CDR-L1": "KSSQSVTYESRNKNSVA", "CDR-L2": "WASTRES", "CDR-L3": "QAYHRLPLS", "group": "Ctrl", "mean, log10 nM": "no signal", "seen in": "0 of 6"}
{"CDR-L1": "KSQQGVPYESRNWNSVA", "CDR-L2": "GASTRES", "CDR-L3": "QQYHRLPLS", "group": "GP_HC", "mean, log10 nM": "-0.08", "seen in": "6 of 6"}
{"CDR-L1": "HSSPSVLYESRNGNSVA", "CDR-L2": "NASTREK", "CDR-L3": "QQYHRLPLS", "group": "GP_HC", "mean, log10 nM": "0.10", "seen in": "6 of 6"}
{"CDR-L1": "KITFQMMSSNAHDYSIA", "CDR-L2": "QTNVYSQ", "CDR-L3": "QQYNRLPLD", "group": "En_Gibbs", "mean, log10 nM": "no signal", "seen in": "0 of 6"}
{"CDR-L1": "KCSQSWLYEDRNKNSVA", "CDR-L2": "GASTRES", "CDR-L3": "QQYHRLPLS", "group": "Ctrl", "mean, log10 nM": "0.17", "seen in": "6 of 6"}
{"CDR-L1": "KSSQLVLYESRNKNSVA", "CDR-L2": "WASTRES", "CDR-L3": "QQGHRLPLS", "group": "Ctrl", "mean, log10 nM": "no signal", "seen in": "0 of 6"}
{"CDR-L1": "KSSFSALYESRNENSVA", "CDR-L2": "EASTREQ", "CDR-L3": "QQYHRLPLS", "group": "GP_HC", "mean, log10 nM": "0.25", "seen in": "6 of 6"}
{"CDR-L1": "MMSQMFEGLSTKKNPVA", "CDR-L2": "QVSTREE", "CDR-L3": "QQYHRLPLS", "group": "En_HC", "mean, log10 nM": "1.10", "seen in": "6 of 6"}
{"CDR-L1": "RIDAYPPMQGKNIDSIA", "CDR-L2": "ENAITLH", "CDR-L3": "QQYANLPLS", "group": "En_Gibbs", "mean, log10 nM": "2.33", "seen in": "4 of 6"}
{"CDR-L1": "KLSQSTLYESRNKNSVA", "CDR-L2": "NASYRES", "CDR-L3": "QQYHRLPLS", "group": "GP_Gen", "mean, log10 nM": "0.32", "seen in": "6 of 6"}
{"CDR-L1": "KLPQSVPYESRNKNSVA", "CDR-L2": "HASTRES", "CDR-L3": "QQYHRLPLS", "group": "GP_Gen", "mean, log10 nM": "0.36", "seen in": "6 of 6"}
{"CDR-L1": "KFDQEVWYESRNKNSVA", "CDR-L2": "GASQRCS", "CDR-L3": "QQYHRLPLS", "group": "GP_Gibbs", "mean, log10 nM": "0.36", "seen in": "6 of 6"}
{"CDR-L1": "KLSQSVLYESRNKNSVA", "CDR-L2": "NASTRET", "CDR-L3": "QQYHRLPLS", "group": "GP_Gen", "mean, log10 nM": "-0.30", "seen in": "6 of 6"}
{"CDR-L1": "SMHPFDVAIGKGTQNIA", "CDR-L2": "HVSVRAS", "CDR-L3": "QQYDRLPLV", "group": "En_Gibbs", "mean, log10 nM": "0.96", "seen in": "6 of 6"}
{"CDR-L1": "KVLQSVQYEGRNKNSVA", "CDR-L2": "HASTRED", "CDR-L3": "QQYHRLPLS", "group": "GP_HC", "mean, log10 nM": "0.05", "seen in": "6 of 6"}
{"CDR-L1": "KLEQGVDMESRNKNSVA", "CDR-L2": "NASMRES", "CDR-L3": "QQYHRLPLS", "group": "GP_Gibbs", "mean, log10 nM": "0.11", "seen in": "6 of 6"}
{"CDR-L1": "KSSQSVAYESRNKNSVA", "CDR-L2": "WASTRES", "CDR-L3": "QQCHRLPLS", "group": "Ctrl", "mean, log10 nM": "2.05", "seen in": "6 of 6"}
{"CDR-L1": "ALNQKGFQLSGMRDSIA", "CDR-L2": "HSDTRLA", "CDR-L3": "QQYYHLPLA", "group": "En_Gibbs", "mean, log10 nM": "0.56", "seen in": "6 of 6"}
{"CDR-L1": "KLSQAVNVTGKNKNSVA", "CDR-L2": "ELSFREQ", "CDR-L3": "QQYDRLPLS", "group": "En_HC", "mean, log10 nM": "2.02", "seen in": "6 of 6"}
{"CDR-L1": "KSSQSVLLESRNKNSVA", "CDR-L2": "WASNRES", "CDR-L3": "YQYHRLPLS", "group": "Ctrl", "mean, log10 nM": "no signal", "seen in": "0 of 6"}
{"CDR-L1": "HISQMVMYGSCNKNNVA", "CDR-L2": "QVTTREE", "CDR-L3": "QQYHRLPLS", "group": "En_HC", "mean, log10 nM": "0.31", "seen in": "6 of 6"}
{"CDR-L1": "KVFMELAEDKASTRNIA", "CDR-L2": "DASVHCA", "CDR-L3": "QQYQRLPLG", "group": "En_Gibbs", "mean, log10 nM": "0.18", "seen in": "6 of 6"}
{"CDR-L1": "KVDQSQLYENRMKNSVA", "CDR-L2": "DASLRES", "CDR-L3": "QQYHRLPLS", "group": "GP_Gibbs", "mean, log10 nM": "-0.09", "seen in": "6 of 6"}

Excerpt, the final 5 entries:

{"CDR-L1": "KLSQAVNVTGKNKNSVA", "CDR-L2": "ELSFREQ", "CDR-L3": "QQYDRLPLS", "group": "En_HC", "mean, log10 nM": "2.02", "seen in": "6 of 6"}
{"CDR-L1": "KSSQSVLLESRNKNSVA", "CDR-L2": "WASNRES", "CDR-L3": "YQYHRLPLS", "group": "Ctrl", "mean, log10 nM": "no signal", "seen in": "0 of 6"}
{"CDR-L1": "HISQMVMYGSCNKNNVA", "CDR-L2": "QVTTREE", "CDR-L3": "QQYHRLPLS", "group": "En_HC", "mean, log10 nM": "0.31", "seen in": "6 of 6"}
{"CDR-L1": "KVFMELAEDKASTRNIA", "CDR-L2": "DASVHCA", "CDR-L3": "QQYQRLPLG", "group": "En_Gibbs", "mean, log10 nM": "0.18", "seen in": "6 of 6"}
{"CDR-L1": "KVDQSQLYENRMKNSVA", "CDR-L2": "DASLRES", "CDR-L3": "QQYHRLPLS", "group": "GP_Gibbs", "mean, log10 nM": "-0.09", "seen in": "6 of 6"}

A sequence measured in both rounds can read differently, since the two assays cover different ranges.
The authors' rule: three or more of the six replicates give a measured affinity, fewer mean a poor binder.
Background: pairings of all light chain designs with three empty control strains gave a value in 4% of cases (median 2.64, 5th percentile 1.59). Values in that range, when seen in few replicates, are hard to tell from nonspecific mating.

Values reported by Li et al. 2023, doi:10.1038/s41467-023-39022-2 (FLAb copy).